Assay results: patent publication US10093658B2, “Bifunctional compounds and use for reducing uric acid levels” (Acquist LLC, priority 2015, dated 2018)
pIC50: −log10 of the molar value.

Amino acid sequences for entries named in this document (tags omitted). A change or cut given only in a name is not applied to a line headed by its entry.
UniProt Q96S37: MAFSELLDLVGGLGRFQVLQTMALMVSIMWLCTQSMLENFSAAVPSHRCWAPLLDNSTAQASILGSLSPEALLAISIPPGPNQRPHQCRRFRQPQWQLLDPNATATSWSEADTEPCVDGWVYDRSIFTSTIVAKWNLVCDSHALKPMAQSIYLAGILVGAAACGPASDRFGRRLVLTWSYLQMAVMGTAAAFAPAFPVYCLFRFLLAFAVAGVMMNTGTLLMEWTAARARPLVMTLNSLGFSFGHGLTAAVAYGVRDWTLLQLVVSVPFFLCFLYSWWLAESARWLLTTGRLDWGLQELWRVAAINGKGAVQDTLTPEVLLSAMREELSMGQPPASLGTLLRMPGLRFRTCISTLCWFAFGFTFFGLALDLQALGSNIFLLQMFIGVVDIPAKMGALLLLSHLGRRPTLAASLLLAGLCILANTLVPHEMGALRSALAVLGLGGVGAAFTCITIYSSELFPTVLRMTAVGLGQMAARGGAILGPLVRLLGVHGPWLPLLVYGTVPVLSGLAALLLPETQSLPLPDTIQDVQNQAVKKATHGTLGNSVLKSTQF

Target: URAT1 (SLC22A12) (Homo sapiens (Human), UniProt Q96S37)
Experiment: URAT1 (SLC22A12) cellular uptake assay, 3H-orotate transport in stably transfected URAT-1/CHO cells

Work on `O=C(O)CSc1nnc(Br)n1-c1ccc(C2CC2)c2ccccc12` [Lesinurad, lesinurad, reference compound] yielded a pIC50 of 4.28 to 4.74.
